# Binding of CDR-mutated scFvs to a peptide of the spike HR2 region

Binding partner: SARS-CoV-2 spike HR2 peptide, sequence PDVDLGDISGINAS.

The variants keep the heavy chain, the linker and the frameworks of Ab-14 (scFv order VH, a (GGGGS)3 linker, VL).
VH: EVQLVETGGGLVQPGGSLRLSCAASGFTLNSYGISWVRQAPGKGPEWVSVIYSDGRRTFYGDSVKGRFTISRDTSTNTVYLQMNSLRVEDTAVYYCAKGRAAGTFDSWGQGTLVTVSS
VL: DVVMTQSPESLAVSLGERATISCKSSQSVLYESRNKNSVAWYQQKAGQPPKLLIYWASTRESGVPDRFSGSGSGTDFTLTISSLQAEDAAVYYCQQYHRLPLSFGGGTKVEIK

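This is the validation round: designs drawn from the data on random variants, tested in the same kind of assay. Their group label is 14L_En_Gen (En: ensemble of fine-tuned language models; Gen: genetic algorithm). In AlphaSeq, yeast of one mating type display the scFv and yeast of the other type display the target. Pairs that bind mate more often; barcode pairs of the diploids are counted by sequencing. Each replicate has its own calibration line, from reference interactions of the BCL2 family. Each pool was mated in six replicate cultures.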

Variants are written as CDR1, CDR2 and CDR3 of the light chain (limits as in the source). Parent: KSSQSVLYESRNKNSVA, WASTRES, QQYHRLPLS. The read-out is the apparent dissociation constant on a log10 scale (nM): the lower, the stronger. A mean of the replicates is given; it leaves out those without a signal. An entry "nd" has no value in the source: the pair was not observed among the diploids in that replicate. This suggests poor binding but is not conclusive. Empty control strains, which show no peptide, gave a signal in 4% of pairings with all light chain designs; the median was 2.64 and 95% of these signals were weaker than 1.59. No background was subtracted. For each scFv, signals with the empty controls are counted beside the result, with their mean in brackets. The authors averaged sequences with at least three values out of six and counted those with two or fewer as poor binders. A sequence measured in both rounds can read differently, since the two assays cover different ranges.

CDR-L1	CDR-L2	CDR-L3	log10 Kd, replicates	mean log10 Kd (nM)	control signals
KISQMVRVGSTHGNSIA	EEATRAD	QQYHRLPLS	0.73 0.49 0.50 0.45 0.73 0.62	0.59	4 of 18 (3.14)
TIGMFLDNVSQNRNNVA	DTSTLGS	QSYDRLPLS	0.97 0.84 1.08 0.96 0.61 0.75	0.87	0 of 18
KISQMARVGQTHGNSIA	EEATRAK	QQYHRLPLA	1.16 1.29 1.19 1.36 1.69 1.47	1.36	0 of 18
MISQVMNTLTRTGNNVA	DLAEREV	QQYFRLPLS	1.56 0.88 1.93 1.34 1.10 0.81	1.27	0 of 18
KLYDMAAVTMQNIRNVA	DNSTRES	QQYHRLPLS	1.46 0.62 0.68 0.41 0.22 0.54	0.65	0 of 18
KVSEFMKGLMMRKDSIA	DNNTRSS	QQYDRLPLS	1.25 1.14 1.00 1.26 1.03 1.48	1.19	0 of 18
MISQMYNMGQFAINSVA	QASERNE	QQYDRLPLQ	2.10 1.53 2.46 1.95 1.81 1.33	1.86	1 of 18 (2.31)
KLSMTHQMESVNRNSVA	ELVTRMK	QQYNRLPLS	0.53 0.45 0.52 0.60 0.40 0.36	0.48	1 of 18 (1.88)
TLYGLSMSMAKNKNNVA	EMTTREK	QQYDRLPLI	1.85 1.14 1.25 1.20 1.22 1.59	1.37	0 of 18
QISQVMGISTHGVNNVA	QMETREE	QQYDRLPLS	1.09 0.96 0.65 0.75 0.59 0.84	0.81	0 of 18
KITATMRFEQKQSNNIA	EVTQRSK	QQYYRLPLA	0.41 0.31 0.19 -0.04 0.37 0.39	0.27	0 of 18
TLYGLSNSMSINKDSVA	EMTTREE	QQYDRLPLM	2.44 2.54 2.82 2.18 2.74 2.10	2.47	3 of 18 (3.13)
TLYGLSNSMSINKDSVA	EMTTREE	QQYDRLPLV	nd nd nd nd nd nd	nd	0 of 18
TLYGLSVSMSKNKNNVA	EMTTREK	QQYDRLPLI	1.15 0.91 0.48 0.65 0.64 1.02	0.81	3 of 18 (2.93)
TIGQTLMQGIRNRSNVA	EVSQRLN	QQYDRLPLF	1.83 2.42 1.58 2.19 1.92 2.07	2.00	3 of 18 (3.31)
HMSMLTLMGSRNRNSVA	QMTTREN	QQYDRLPLA	0.92 0.70 0.95 0.72 0.83 1.05	0.86	0 of 18
IVSQLMLWGMHHKNSIA	EASTRLN	QQYERLPLF	nd nd nd nd nd nd	nd	0 of 18
IVSQLMMWGMVAKNSIA	EAVTRLN	QQYDRLPLF	nd nd nd nd nd nd	nd	0 of 18
MLSMVADYSSVSKNSVA	EMETREE	QQYDRLPLI	2.10 1.77 1.62 1.20 2.08 1.75	1.75	1 of 18 (2.55)
MLSEVLHMLGVQQNSIA	DLVLRAN	QQYHRLPLM	nd nd nd nd nd nd	nd	1 of 18 (1.64)
IVSQLMLVGIHAKNSIA	EAQMRLN	QQYDRLPLF	nd nd nd nd nd nd	nd	0 of 18
KLGMTLNQLYEKKNNVA	DLVEREN	QQYHRLPLS	0.36 0.30 0.33 0.24 0.41 0.53	0.36	4 of 18 (3.54)
TISQVMNTLTRLGNNVA	DLAERED	QQYFRLPLS	1.18 1.11 0.57 0.81 1.08 1.26	1.00	0 of 18
MLSELVMGLSRKHNSVA	DNTTRYS	QQYDRLPLS	2.12 nd 3.38 1.67 nd nd	2.39	1 of 18 (2.01)
TISMITSSFSQNINNVA	EVSTRLN	QQYDRLPLA	nd nd 0.88 nd 0.29 0.35	0.51	0 of 18
MISQLMNMGTFAINSVA	QAEIRNE	QQYDRLPLI	nd 2.09 2.32 3.35 nd 2.17	2.49	0 of 18
TISQMYNMGQFAINSVA	QASERNE	QQYDRLPLQ	0.49 0.24 0.33 0.20 0.36 0.44	0.34	0 of 18
MLSQMWALGMKVSNSVA	QASMRFN	QQYNRLPLI	nd 1.77 nd nd nd 2.77	2.27	0 of 18
IVSQLMLWGMHARNSIA	EAETRLN	QQYERLPLF	nd nd nd nd nd nd	nd	0 of 18
KLSQVTGHMQVEKNNVA	EMETREN	QQYDRLPLS	0.97 1.15 0.82 0.81 0.67 1.33	0.96	3 of 18 (3.17)
MISGVLHMLGAKKNSIA	DLVLRAN	QQYHRLPLM	nd nd 2.36 3.30 1.50 1.38	2.13	0 of 18
KIGMTLNTLMHQVNNVA	DLVNREN	QQYFRLPLS	-0.06 0.01 0.25 -0.39 -0.10 0.02	-0.04	0 of 18
MFSQMLMLGTKAKNSVA	QASMRFN	QQYHRLPLI	0.63 0.05 0.10 nd 0.31 0.52	0.32	0 of 18
MMSQVSGQGTRHRNNVA	QTETREP	QQYDRLPLM	1.06 0.59 0.49 0.53 0.45 0.70	0.64	2 of 18 (3.11)
MMSQVTGQGQRHRNNVA	QTSMREP	QQYDRLPLI	1.23 0.64 0.69 1.07 0.83 0.90	0.89	2 of 18 (2.58)
MISEVLNTLTKEGSNVA	DLAERER	QQYFRLPLS	1.68 1.58 nd 2.04 1.23 2.82	1.87	0 of 18
IVSQLMIWGMHVKNSIA	EAELRLN	QQYDRLPLY	nd nd nd nd nd nd	nd	0 of 18
KLASVTGTEKVIGNNVA	EMETRER	QQYNRLPLA	0.24 0.25 0.13 0.01 0.25 0.34	0.20	0 of 18
TLYGLSNSMSINKNNVA	EMTTREK	QQYDRLPLI	0.94 1.55 1.01 1.09 2.59 1.31	1.41	0 of 18
TLYGLSVSMSKNVNNVA	EMTTREK	QQYDRLPLV	1.32 1.40 1.98 1.10 0.97 1.40	1.36	1 of 18 (2.27)
MISQVMNTLTRYGNNVA	DLQEREE	QQYFRLPLS	0.51 1.49 0.53 -0.06 0.56 0.51	0.59	1 of 18 (3.03)
MISQLWNMGQFAINSVA	QASQRNA	QQYDRLPLI	1.10 1.47 2.03 1.37 1.72 1.12	1.47	0 of 18

The 4 strongest on average among those seen in every replicate, once more:

{"CDR-L1": "KIGMTLNTLMHQVNNVA", "CDR-L2": "DLVNREN", "CDR-L3": "QQYFRLPLS", "log10 Kd, replicates": "-0.06 0.01 0.25 -0.39 -0.10 0.02", "mean log10 Kd (nM)": "-0.04", "control signals": "0 of 18"}
{"CDR-L1": "KLASVTGTEKVIGNNVA", "CDR-L2": "EMETRER", "CDR-L3": "QQYNRLPLA", "log10 Kd, replicates": "0.24 0.25 0.13 0.01 0.25 0.34", "mean log10 Kd (nM)": "0.20", "control signals": "0 of 18"}
{"CDR-L1": "KITATMRFEQKQSNNIA", "CDR-L2": "EVTQRSK", "CDR-L3": "QQYYRLPLA", "log10 Kd, replicates": "0.41 0.31 0.19 -0.04 0.37 0.39", "mean log10 Kd (nM)": "0.27", "control signals": "0 of 18"}
{"CDR-L1": "TISQMYNMGQFAINSVA", "CDR-L2": "QASERNE", "CDR-L3": "QQYDRLPLQ", "log10 Kd, replicates": "0.49 0.24 0.33 0.20 0.36 0.44", "mean log10 Kd (nM)": "0.34", "control signals": "0 of 18"}

Reference: Li et al. 2023, doi:10.1038/s41467-023-39022-2. File: FLAb, binding data.